In the series the test system is HUVEC. Nature of the series: Cytotoxicity to HUVEC (MTS). The format is cell-based, Human. The method, then:
Assays for cytotoxicity: the above HUVECs were cultured in an F-12K culture medium containing 10% fetal bovine serum (FBS), 100 U/mL penicillin, 100 µg/mL streptomycin, 30 ug/mL ECGS, and 18 u/mL heparin. The HUVECs growing in the exponential phase were digested with pancreatin, and was adjust to have an appropriate level of cell density by using an F-12K complete medium containing 5% FBS, then 150 μL cells were inoculated into a 96-well plate at 3000 cells/well. 24 hours later, 50 μL of the test compound 4-fold diluted in a complete medium containing 5% FBS was added, and the same volume of a DMSO dilute solution was used as a control. After the cells were further cultured for 72 h, 20 μL MTS and 1 μL PMS were added to each well. 1-2 hours later, OD490 was measured, with OD650 as a reference. A dose-effect curve was drawn using the GraphPad Prism software, and half cytotoxic concentration (CC50) was calculated. The therapeutic index (TI) of the test compound on HUVECs was calculated as TI=CC50/EC50.

For the compound `CCN(CC)CCNC(=O)c1c(C)[nH]c(/C=C2\C(=O)Nc3ccc(F)cc32)c1C` [Sunitinib, reference compound], the “TI = CC50/EC50” value worked out at 536.
